This is an account of results in patent US20260041782A1, “ANTIBODY-DRUG CONJUGATES, PHARMACEUTICAL COMPOSITIONS, AND THERAPEUTIC APPLICATIONS” (priority 2022, published 2026).

Holding throughout (format): cell-based, human
Common to all, as to conditions: 5,000 cells/well, incubated 4 or 5 days, CELLCOUNTING-LITE

Assay [1] relates to SK-OV-3 (ovarian adenocarcinoma). The assay is described as follows: Cell viability assay, SK-OV-3. Here is the method:
(§1) The human cell lines NCI-N87 (gastric carcinoma), SK-BR-3 (breast adenocarcinoma), and SK—OV-3 (ovarian adenocarcinoma) were seeded at 5,000 cells/well in a culture media in a 96-well flat-bottom plate. Solutions of ADC compounds, ADC-A1, ADC-A2, ADC-C2, ADC-C8, ADC-C29, and ADC-C52, were prepared by a 3-fold serial dilution and added into cells. Trastuzumab deruxtecan (DS-8201) was used as a positive control. The cells were incubated for 4 or 5 days at 37° C. under 5% CO2. CELLCOUNTING-LITE was then added to each well. The plate was mixed and incubated for 10 min at room temperature. The solution in each cell was transferred to a 96-well white opaque plate for reading.

Assay [2] has as its system SK-BR-3 (breast adenocarcinoma). Description: Cell viability assay, SK-BR-3. As for the experimental part:
as §1

For assay [3], the system named is NCI-N87 (gastric carcinoma). Description: Cell viability assay, NCI-N87.

In the case of DS-8201, the EC50 (as a rule, the concentration giving half of the maximal effect) in assay [1] was 0.162 nM; in assay [2], 0.075 nM; in assay [3], 0.29 nM. Further, the “Max Killing” value in assay [1] turned out to be 34%; in assay [2], 82%.
